The values below come from patent US20230248844A1, “C[…] ADC OR AN AOC COMPRISING A VHH, AND A SAPONIN OR A LIGAND-SAPONIN CONJUGATE” (SAPREME TECHNOLOGIES B.V., priority 2020, published 2023).

Data set [1] has as its system SK-BR-3 cells. Description: Cell killing / cell viability (MTS) assay on SK-BR-3. The data set is classed as cell-based, human.
Data set [2] relates to MDA-MB-468 cells. Description: Cell killing / cell viability (MTS) assay on MDA-MB-468. The class given is cell-based, human.
Data set [3] has as its system A431 cells. Description: Cell killing / cell viability (MTS) assay on A431. The class given is cell-based, human.
Data set [4] deals with human A431 tumor cells xenograft. Briefly: A431 xenograft tumor model, tumor volume and survival (Example 10). The class given is in vivo, Balb/c nude mice. To be noted: sub-optimal ADC dose.
For data set [5] the following is noted: monkeys; cited from earlier work.
The test system of data set [6] is A2058 cells. Briefly: Cell killing / cell viability (MTS) assay on A2058. The class given is cell-based, human.
The test system of data set [7] is HeLa cells. Description: Cell killing / cell viability (MTS) assay on HeLa. The data set is classed as cell-based, human. Conditions: mAb-SO1861 conjugate titrated + fixed 50 pM trastuzumab-saporin (Example 14).
The mark [8] stands for this setting: mAb-SO1861 (DAR4) titrated + fixed 50 pM bivalentVHH-EGFR-dianthin.
The mark [9] stands for this setting: mAb or mAb-SO1861 conjugate titrated + fixed 50 pM trastuzumab-saporin (Example 14).
The mark [10] stands for this setting: SO1861 or mAb-SO1861 titrated (calculated on SO1861 concentration) + fixed 10 pM EGF-dianthin.
The mark [11] stands for this setting: SO1861 or mAb-SO1861 titrated (calculated on SO1861 concentration) + fixed 10 pM cetuximab-saporin.
[12] abbreviates: SO1861 or mAb-SO1861 titrated (calculated on SO1861 concentration) + fixed 50 pM trastuzumab-saporin.

What is called IC50 is the concentration needed to halve the response being measured.

“Cetuximab-SO1861 (DAR4): SO1861-EMCH conjugated via cysteine residues to cetuximab, DAR 4”: the values for the IC50 in data set [1] (setting [8]), in data set [2] (setting [8]) and in data set [3] (setting [8]) were 200 nM, 0.5 nM and 4 nM, respectively.

Consider “Cetuximab: monoclonal antibody recognizing and binding human EGFR [reference compound]”, for which the IC50 cell killing entry in data set [3] (setting [9]) and in data set [3] (titrated alone) was “could not induce any cell killing activity” throughout. For the same substance, in data set [4], the “outcome (death/euthanasia or survival)” value is “(death/euthanasia)”.

In data set [2] (titrated alone), “T-DM1: Trastuzumab-emtansine carrying ~3.5 DM1 toxin molecules per antibody [reference compound]” displayed an IC50 of 60 nM. In addition, the IC50 cell killing entry in data set [3] (titrated alone) is listed as “nanomolar concentrations”. In addition, in data set [5], the “enhancement of tolerable dose of DM1 by conjugation to trastuzumab” value is “at least two-fold”.

For the substance “Trastuzumab: monoclonal antibody recognizing and binding human HER2 [reference compound]”, the IC50 cell killing entry in data set [1] (mAb or mAb-SO1861 conjugate titrated + fixed 1.5 pM EGFdianthin (Example 14)), in data set [1] (mAb or mAb-SO1861 conjugate titrated + fixed 5 pM cetuximab-saporin (Example 14)) and in data set [1] (titrated alone) was “could not induce any cell killing activity” throughout.

In the case of “cetuximab-SO1861: SO1861-EMCH conjugated via cysteine residues to cetuximab, DAR 3.7”, the IC50 was 6 nM in data set [2] (setting [10]); 3 nM in data set [2] (setting [11]); 18 nM in data set [2] (setting [12]); 8 nM in data set [3] (setting [10]); 5 nM in data set [3] (setting [11]); 12 nM in data set [3] (setting [12]). In addition, the values for the IC50 in data set [3] (setting [9]), in data set [6] (mAb-SO1861 conjugate titrated + fixed 50 pM trastuzumab-saporin (Example 14)) and in data set [7] were 3 nM, greater than 400 nM and 400 nM, respectively. Further, in data set [3] (titrated alone), the IC50 cell killing result was “could not induce any cell killing activity”. In addition, the “outcome (death/euthanasia or survival)” value in data set [4] was “death/euthanasia”. Besides, the “tumor size (volume)” value in data set [4] (tumor approximately 170-180 mm^3 at start of treatment) was found to be 2000 mm^3.

“trastuzumab-SO1861: SO1861-EMCH conjugated via cysteine residues to trastuzumab, DAR 4”: the IC50 cell killing result in data set [1] (titrated alone) is listed as “could not induce any cell killing activity”. The IC50 in data set [2] (setting [8]) is 400 nM; in data set [2] (mAb-SO1861 conjugate titrated + fixed 1.5 pM EGFdianthin (Example 14)), greater than 1000 nM; in data set [3] (setting [8]), 400 nM; in data set [6] (setting [8]), 400 nM.
